What was measured:
human LTA4 hydrolase = human LTA4 hydrolase (Homo sapiens (Human), UniProt P09960); test: LTA4H Enzyme assay (peptidase, Arg-AMC cleavage); settings: read-out: Peptidase IC50; LTA4H Enzyme 1 nM, Arg-AMC substrate 50 μM, room temperature 1 h, fluorescence
[1] = test system: synthesis of LTB4 in human whole blood; test: LTB4 production inhibition assay in human whole blood (HWB); settings: read-out: hWB IC50; heparinized human whole blood, 15 min at 37° C., Calcimycin 20 μM 30 min, plasma LTB4 by HTRF
Protocol: The compounds of the invention are additionally tested in a human whole blood (HWB) assay to determine their ability to inhibit the synthesis of LTB4 in a cellular system. Compounds are combined with heparinized human whole blood and incubated for 15 minutes at 37° C. Calcimycin (20 μM final, prepared in phosphate-buffered saline, pH 7.4) is then added and the mixture is incubated for another 30 minutes at 37° C. The samples are centrifuged for 5 min at low speed (1500×g) and the plasma layer is removed. Plasma LTB4 concentrations are then measured using an antibody-based homogenous time-resolved fluorescence method (CisBio, Bedford, Mass.). In general, the preferred potency range (IC50) of compounds in the HWB assay is between 10 nM to 10 μM, the more preferred potency range is 10 nM to 1 μM, and the most preferred potency range is 10 nM to 100 nM.

By UniProt entry, the sequences of proteins in these tests, tags left out.
UniProt P09960, whole entry: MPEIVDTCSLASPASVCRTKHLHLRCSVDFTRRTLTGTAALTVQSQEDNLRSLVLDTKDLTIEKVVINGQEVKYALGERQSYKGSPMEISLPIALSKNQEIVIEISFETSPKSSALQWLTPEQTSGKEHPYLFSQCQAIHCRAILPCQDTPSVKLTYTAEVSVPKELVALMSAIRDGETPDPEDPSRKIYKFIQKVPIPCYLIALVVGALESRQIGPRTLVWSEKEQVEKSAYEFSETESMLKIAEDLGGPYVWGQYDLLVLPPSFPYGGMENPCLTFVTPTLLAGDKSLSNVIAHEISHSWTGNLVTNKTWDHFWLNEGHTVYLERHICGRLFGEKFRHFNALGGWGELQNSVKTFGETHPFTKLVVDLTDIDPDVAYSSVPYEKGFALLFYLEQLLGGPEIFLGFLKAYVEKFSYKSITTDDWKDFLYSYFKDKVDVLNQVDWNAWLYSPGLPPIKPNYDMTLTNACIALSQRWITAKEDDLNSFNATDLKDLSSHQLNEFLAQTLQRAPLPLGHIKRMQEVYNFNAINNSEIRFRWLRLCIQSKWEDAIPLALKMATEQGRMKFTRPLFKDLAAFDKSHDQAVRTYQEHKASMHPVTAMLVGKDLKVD

SMILES | IC50 (human LTA4 hydrolase) [nM] | IC50 [1] [nM]
CO[C@@H](C)C(=O)N1CCN(Cc2cn3cc(Oc4ccc(-c5ccn[nH]5)cc4)ccc3n2)CC1 | 1 | 280
O=C(CO)N1CCN(Cc2cn3cc(Oc4ccc(-c5ccn[nH]5)cc4)ccc3n2)CC1 | 0.79 | 240

From patent publication US9573957B2 (Boehringer Ingelheim International GmbH, priority 2013, dated 2017)
